{"source": "paper PMC2697320", "about": "“Identification of the high affinity binding site in the Streptococcus intermedius toxin intermedilysin for its membrane receptor, the human complement regulator CD59” (Molecular Immunology, 2009)", "molecular_target": "Recombinant soluble CD59 comprising amino acids 1-76 with an 11 amino acid Ser/Gly linker and termin (human)", "assay": "SPR; Biacore T100; CD59 immobilised through its terminal Cys by thiol coupling on a CM5 chip; analyte flowed at 30 ul/min, 25 C; HBS with 0.05% surfactant P20 and 3 mM EDTA; affinity by steady state analysis", "data": [{"substance": "Intermedilysin (recombinant mature ILY) (natural protein)", "values": [{"measurement": "Kd", "result": 4.29, "unit": "nM"}]}]}
